# Antibody variant affinities, Ab-14 light chain, assay 1

Target: peptide PDVDLGDISGINAS, taken from heptad repeat 2 (HR2) of SARS-CoV-2 spike.

Parent: Ab-14, a human scFv built as VH, a 15-residue (Gly4Ser)3 linker, VL. Only the CDRs of the light chain vary.
VH: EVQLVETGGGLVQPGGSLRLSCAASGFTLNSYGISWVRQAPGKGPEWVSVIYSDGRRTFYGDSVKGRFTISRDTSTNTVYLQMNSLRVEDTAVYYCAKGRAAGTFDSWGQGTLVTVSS
VL: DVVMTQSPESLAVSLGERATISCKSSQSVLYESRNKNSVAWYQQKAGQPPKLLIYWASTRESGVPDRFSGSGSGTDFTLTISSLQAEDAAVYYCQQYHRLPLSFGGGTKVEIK

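The parent was found by panning a naive human phage display library on the peptide. The library (AAYL50) carries one to three amino acid substitutions per variant, with no insertions or deletions. The scFvs were displayed on barcoded MATa yeast, the peptide on MATalpha yeast. Mating (16 h, 30 °C) was followed by selection of diploids and sequencing of their barcodes. The ratio of observed to expected reads was calibrated, replicate by replicate, on BCL2-family standards whose Kd was known from biolayer interferometry. There are three technical replicates.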

Each variant is given by its three light chain CDRs, as the data file delimits them; those of the parent are KSSQSVLYESRNKNSVA, WASTRES, QQYHRLPLS.
All variants listed here change L102 of the VL, counted from its first residue.
The Kd shown is the geometric mean over detected replicates; a lower Kd is a better binder.
"not detected" marks a missing value. The strain was present, yet no cells mated with the target were sequenced in any replicate, which points to weak or no binding.
Empty control strains, which show no peptide, gave a signal in 18% of pairings with library AAYL50; the median was 15 µM and 95% of these signals were weaker than 970 nM. No background was subtracted.

CDR-L1	CDR-L2	CDR-L3	Kd	replicates with signal
KSSQSVLYESRNKRSVA	WASTRES	VQYHRLPGS	390 µM	1/3
KSSQSVLYESINKNSVA	WASTRES	QYYHRLPCS	not detected	0/3
KSSQSVDYESRNKNSVA	WASTRES	QQYHRLPCS	23 nM	3/3
KSSQSVLYESRNKNSVA	WASTREW	QMYHRLPVS	not detected	0/3
KSSQSVLYESRNKNSVA	WANTRES	QQTHRLPIS	not detected	0/3
KSSQSVLYESRNKNSVA	WASTRWS	QQYHRLPAH	not detected	0/3
KSSQHVLYPSRNKNSVA	WASTRES	QQYHRLPDS	520 nM	3/3
KSSQSVLYESRNINSVA	WASTYES	QQYHRLPVS	not detected	0/3
KSSQSVLYESRHKNSVA	WASMRES	QQYHRLPRS	120 µM	1/3
KSSQSVLYESGNKRSVA	WASTRES	QQYHRLPMS	not detected	0/3
KSSQSVLYESRNVNSVA	WASTRED	QQYHRLPFS	3.6 nM	3/3
KMSQSVLYESRNKNSVA	WAQTRES	QQYHRLPWS	not detected	0/3
KSSQSVWYESRNKNSVG	WASTRES	QQYHRLPHS	2.9 µM	2/3
KSSQSVLYTSRNKNSVA	WASTRES	QQVHRLPTS	400 nM	2/3
KSSQSVLYESRNKNSVT	WASTRES	QQYHRLPYS	not detected	0/3
KSSFSVLYESRNKNSAA	WASTRES	QQYHRLPCS	1.2 µM	1/3
KSSQSVLYESRNKNFVA	WASFRES	QQYHRLPES	68 µM	3/3
KSSQFVLYESRHKNSVA	WASTRES	QQYHRLPHS	79 µM	2/3
KSSQSVLYESRNKNSVA	WASTRTS	QQYHRLPMS	4.8 µM	3/3
KSSQSVLYESRNCNSVA	WASTRES	QQYHRLPTS	10 nM	3/3
KSSQSVLYESRNLNSVA	WASTRES	QQYCRLPGS	7.6 nM	3/3
KSSDSVLYESRNKNSVA	WASTRES	QQYHRLPDS	not detected	0/3
KSSQSVLYESRNKNSVA	DASTRES	QQYKRLPNS	not detected	0/3
KSSQSVLYESRNKNSVA	WASTRES	QQGHRLPSS	8.1 nM	3/3
KSSQSVLIESRNKNSVA	WASTRES	QQYHRLPHS	64 nM	3/3
KSSQSVLYEQRNKNSVA	WASTRES	QQYHRLPVS	180 nM	3/3
KSSQSVLYESRYKNSVA	WASTRAS	QQYHRLPIS	19 nM	3/3
KSSQSVLYESRNKNSYA	WASTRES	FQYHRLPAS	not detected	0/3
KSCQSVLYESRNKNSVA	WASTRES	QQYSRLPTS	not detected	0/3
KSSQSVLYESRNKNSVA	SASTRES	QQNHRLPYS	5.4 µM	2/3
KSSQSVTWESRNKNSVA	WASTRES	QQYHRLPSS	9.5 nM	3/3
KSSQSFLYESRNKNSVA	WASTRES	QQYHYLPMS	not detected	0/3
KSSQSVLYESRNKYSVA	SASTRES	QQYHRLPKS	3.6 nM	3/3
KSSQSVLYESRNKNMVA	WASTRES	QQYHRLITS	not detected	0/3
KSSQSVLYESRNKNSVA	WACTRES	QQYHRLPES	not detected	0/3
TSSQSVLYESRNKKSVA	WASTRES	QQYHRLPWS	3.7 µM	1/3
KSSWSVLYESRNKNSVA	WASTRES	QQYWRLPRS	33 µM	2/3
KSSQRVLYESRNKNSVA	WASTRES	QQYHTLPHS	not detected	0/3
KSSQSYLYESRNKNSVA	WASTRES	QQYHRLPMS	6.8 nM	3/3
KSSCSVLYESRNKNSVA	WASTRES	QQYHRLATS	not detected	0/3
KSSQSVLYESRNKNSVA	WASTRES	QQDHRLPGS	not detected	0/3
KSSQSVLYESRNKNSVA	WASTRES	QQQHRLEES	not detected	0/3
KSSQSVLYESRNKNSVK	WASTRES	QQYHRLDWS	5.2 µM	1/3
KSSQSVHYESRWKNSVA	WASTRES	QQYHRLPPS	not detected	0/3
KSSQHVLYESRNKNSVA	WASTREP	QQYHRLPGS	8.3 µM	3/3
KSSQSVLYESRIKNSVA	WASTRES	QNYHRLPQS	not detected	0/3
KSSQSTLYESRNKNSVA	WASTRES	QQYHRYPSS	not detected	0/3
KSSQSVNYESRNKNSVA	WASTAES	QQYHRLPTS	21 µM	2/3
KSSQSVLYESRNKNSVA	WASCRDS	QQYHRLPQS	12 µM	1/3
KSSQSVLYESRNKNSVA	WASTRCS	QQYHRLPVS	550 nM	3/3
GSSQSVLYESRNKNSVA	WASTRTS	QQYHRLPWS	72 µM	1/3
KSSQSVLYESGNKNSVA	WASTRES	QQYHRLPQH	7.9 µM	1/3
KSYQSVLYESRNKNEVA	WASTRES	QQYHRLPVS	22 µM	1/3
KVSQSVLYESRNKNSVA	WASTRES	QQYHRIPES	not detected	0/3
KSSRSVLYESRNKNSVA	WASTRES	QQYHRSPPS	370 nM	3/3
KSSQSVLYESKNKNSVA	WQSTRES	QQYHRLPQS	51 µM	3/3
KSSQSFLYHSRNKNSVA	WASTRES	QQYHRLPFS	30 nM	3/3
KSSQSVLYEPRNKNSVA	WASTRES	QQYHRLPFC	2.1 µM	1/3
KSSQSVLYESRNKNSVA	WASTRES	QHKHRLPAS	not detected	0/3
KSYQWVLYESRNKNSVA	WASTRES	QQYHRLPNS	not detected	0/3
KSSQSVLYESRNKNSVA	HASTRES	QSYHRLPYS	1.8 nM	3/3
KSSQSVLYESRNKNSVA	YSSTRES	QQYHRLPMS	500 nM	3/3
KSSQSVLYESRNKNSVA	WHSTRES	QQYHSLPAS	12 µM	1/3
KSSQSVLYESRNKNSMA	WASTRFS	QQYHRLPGS	not detected	0/3

For reference, 9 entries of the list once more:

{"CDR-L1": "KSSQSVLYESRNKNSVA", "CDR-L2": "WACTRES", "CDR-L3": "QQYHRLPES", "Kd": "not detected", "replicates with signal": "0/3"}
{"CDR-L1": "KSSQSVDYESRNKNSVA", "CDR-L2": "WASTRES", "CDR-L3": "QQYHRLPCS", "Kd": "23 nM", "replicates with signal": "3/3"}
{"CDR-L1": "KSSQSVLYESRIKNSVA", "CDR-L2": "WASTRES", "CDR-L3": "QNYHRLPQS", "Kd": "not detected", "replicates with signal": "0/3"}
{"CDR-L1": "KSSQSVLYESRNKYSVA", "CDR-L2": "SASTRES", "CDR-L3": "QQYHRLPKS", "Kd": "3.6 nM", "replicates with signal": "3/3"}
{"CDR-L1": "KSSQSVTWESRNKNSVA", "CDR-L2": "WASTRES", "CDR-L3": "QQYHRLPSS", "Kd": "9.5 nM", "replicates with signal": "3/3"}
{"CDR-L1": "KSSWSVLYESRNKNSVA", "CDR-L2": "WASTRES", "CDR-L3": "QQYWRLPRS", "Kd": "33 µM", "replicates with signal": "2/3"}
{"CDR-L1": "KSSQRVLYESRNKNSVA", "CDR-L2": "WASTRES", "CDR-L3": "QQYHTLPHS", "Kd": "not detected", "replicates with signal": "0/3"}
{"CDR-L1": "KSSQSVLYESRNKNSVA", "CDR-L2": "YSSTRES", "CDR-L3": "QQYHRLPMS", "Kd": "500 nM", "replicates with signal": "3/3"}
{"CDR-L1": "KSSQSVLYESRNKNSVA", "CDR-L2": "WASTRTS", "CDR-L3": "QQYHRLPMS", "Kd": "4.8 µM", "replicates with signal": "3/3"}

Parent in this assay: reference entry 4.4 nM, copy in this library 48 nM.

Data: MIT Lincoln Laboratory AlphaSeq set, Engelhart et al. 2022, doi:10.1038/s41597-022-01779-4, as distributed in FLAb.